In patent publication US5153179A, “Medicament with improved penetration of the tissue membrane” (Max-Planck-Gesellschaft zur Foerderung der Wissenschaft e.V., priority 1983, dated 1992):

Experiment: Blood-brain barrier penetration by the method of Oldendorf (radioactively marked active material, A. carotis injection, brain radioactivity after 15 seconds)
Conditions: + dissolved in inger albumin
Protocol: The effectiveness of the medicament according to the invention was tested according to the method of Oldendorf (Brain-Res., 24, 372-376 (1970)). […] In the case of the medicament according to the invention, the administration took place into the A. carotis. 15 seconds later, the experimental animal was decapitated, the brain removed and the radioactivity bound therein determined. […] The numerical values give the percentage proportion of active material which has passed the blood-brain barrier. As comparative substance, there was employed an isotonic buffer solution. The compound of the general formula was present in iso-osmolar concentration, which corresponds to about 0.3 Osmol/ 1. in the solution administered.
In the case of the experiments according to the method of Oldendorf, the active materials were used in amounts of between 10 and 100 μmol. There was thereby obtained no dependency of the penetration percentage of the active material concentration, i.e. that with increasing amount of active material, the percentage passing the blood-brain barrier remained about the same. In the case of methotrexate as active material, the penetration was also investigated in the case of higher concentrations.
The penetration achieved also depends upon the amount of glycerol derivative of the general formula used. […]

Question: Which results are given for “phosphatidyl-choline [phosphatidylcholine]”?
Answer: percentage proportion of active material which has passed the blood-brain barrier, with C5 (with addition of glycerol 1-pentyl ether, about 0.3 Osmol/l): 16.3 ± 3.3%; percentage proportion of active material which has passed the blood-brain barrier, without (without addition of a compound of the general formula): 2.6 ± 0.8%
